{"source": "PubChem BioAssay (NCI)", "assay_in_all_cases": "DTP human tumour cell line panel, 48 h", "key": {"[1]": {"system": "MALME-3M melanoma"}, "[2]": {"system": "A498 renal"}, "[3]": {"system": "OVCAR-3 ovarian"}, "[4]": {"system": "T-47D breast"}, "[5]": {"system": "NCI-H522 lung"}, "[6]": {"system": "HOP-62 NSCLC"}, "[7]": {"system": "MDA-MB-435"}, "[8]": {"system": "NCI/ADR-RES ovarian"}, "[9]": {"system": "UACC-257 melanoma"}, "[10]": {"system": "OVCAR-8 ovarian"}, "[11]": {"system": "SR leukemia"}, "[12]": {"system": "786-0 renal"}, "[13]": {"system": "MCF7 breast"}, "[14]": {"system": "K-562 leukemia"}, "[15]": {"system": "M14 melanoma"}, "[16]": {"system": "DU-145 prostate"}, "[17]": {"system": "SK-MEL-5 melanoma"}, "[18]": {"system": "HL-60(TB) leukemia"}, "[19]": {"system": "SK-MEL-28 melanoma"}, "[20]": {"system": "ACHN renal"}, "[21]": {"system": "IGROV1 ovarian"}, "[22]": {"system": "RXF 393 renal"}, "[23]": {"system": "HCT-116 colon"}, "[24]": {"system": "HOP-92 NSCLC"}, "[25]": {"system": "COLO 205 colon"}, "[26]": {"system": "U251 CNS"}, "[27]": {"system": "SK-OV-3 ovarian"}}, "note": "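96-well plates; 48 h exposure; 5 concentrations. Endpoints by linear interpolation between flanking doses. Not reached: highest tested concentration assigned. GI50 is the concentration that inhibits growth by half. TGI denotes the concentration required for complete inhibition of growth.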", "data": [{"smiles": "O=[N+]([O-])C1(Br)CCC(Br)([N+](=O)[O-])CC1", "note": "(centres undefined)", "values": [{"measurement": "GI50", "setting": "[1]", "result": 2.14, "unit": "µM"}, {"measurement": "TGI", "setting": "[1]", "result": 8.38, "unit": "µM"}, {"measurement": "GI50", "setting": "[2]", "result": "> 100", "unit": "µM"}, {"measurement": "TGI", "setting": "[2]", "result": "> 100", "unit": "µM"}, {"measurement": "GI50", "setting": "[3]", "result": 15.3, "unit": "µM"}, {"measurement": "TGI", "setting": "[3]", "result": 31.6, "unit": "µM"}, {"measurement": "GI50", "setting": "[4]", "result": 21.7, "unit": "µM"}, {"measurement": "TGI", "setting": "[4]", "result": "> 100", "unit": "µM"}, {"measurement": "GI50", "setting": "[5]", "result": 5.42, "unit": "µM"}, {"measurement": "TGI", "setting": "[5]", "result": 22.8, "unit": "µM"}, {"measurement": "GI50", "setting": "[6]", "result": 15.9, "unit": "µM"}, {"measurement": "TGI", "setting": "[6]", "result": 31.8, "unit": "µM"}, {"measurement": "GI50", "setting": "[7]", "result": 15.3, "unit": "µM"}, {"measurement": "TGI", "setting": "[7]", "result": 30.8, "unit": "µM"}, {"measurement": "GI50", "setting": "[8]", "result": 15.5, "unit": "µM"}, {"measurement": "TGI", "setting": "[8]", "result": 30.1, "unit": "µM"}, {"measurement": "GI50", "setting": "[9]", "result": 10.8, "unit": "µM"}, {"measurement": "TGI", "setting": "[9]", "result": 23.1, "unit": "µM"}, {"measurement": "GI50", "setting": "[10]", "result": 16.5, "unit": "µM"}, {"measurement": "TGI", "setting": "[10]", "result": 31.6, "unit": "µM"}, {"measurement": "GI50", "setting": "[11]", "result": 1.74, "unit": "µM"}, {"measurement": "TGI", "setting": "[11]", "result": 3.58, "unit": "µM"}, {"measurement": "GI50", "setting": "[12]", "result": 3.83, "unit": "µM"}, {"measurement": "TGI", "setting": "[12]", "result": 14.3, "unit": "µM"}, {"measurement": "GI50", "setting": "[13]", "result": 29.8, "unit": "µM"}, {"measurement": "TGI", "setting": "[13]", "result": "> 100", "unit": "µM"}, {"measurement": "GI50", "setting": "[14]", "result": 13.2, "unit": "µM"}, {"measurement": "TGI", "setting": "[14]", "result": 33, "unit": "µM"}, {"measurement": "GI50", "setting": "[15]", "result": 14.1, "unit": "µM"}, {"measurement": "TGI", "setting": "[15]", "result": 30.7, "unit": "µM"}, {"measurement": "GI50", "setting": "[16]", "result": 17.6, "unit": "µM"}, {"measurement": "TGI", "setting": "[16]", "result": 32.1, "unit": "µM"}, {"measurement": "GI50", "setting": "[17]", "result": 14.6, "unit": "µM"}, {"measurement": "TGI", "setting": "[17]", "result": 31.4, "unit": "µM"}, {"measurement": "GI50", "setting": "[18]", "result": 5.44, "unit": "µM"}, {"measurement": "TGI", "setting": "[18]", "result": 25, "unit": "µM"}, {"measurement": "GI50", "setting": "[19]", "result": 15.4, "unit": "µM"}, {"measurement": "TGI", "setting": "[19]", "result": 30.7, "unit": "µM"}, {"measurement": "GI50", "setting": "[20]", "result": 10.5, "unit": "µM"}, {"measurement": "TGI", "setting": "[20]", "result": 22.4, "unit": "µM"}, {"measurement": "GI50", "setting": "[21]", "result": 18, "unit": "µM"}, {"measurement": "TGI", "setting": "[21]", "result": 33.6, "unit": "µM"}, {"measurement": "GI50", "setting": "[22]", "result": 6.34, "unit": "µM"}, {"measurement": "TGI", "setting": "[22]", "result": 71.9, "unit": "µM"}, {"measurement": "GI50", "setting": "[23]", "result": 3.48, "unit": "µM"}, {"measurement": "TGI", "setting": "[23]", "result": 11.4, "unit": "µM"}, {"measurement": "GI50", "setting": "[24]", "result": 12, "unit": "µM"}, {"measurement": "TGI", "setting": "[24]", "result": 25, "unit": "µM"}, {"measurement": "GI50", "setting": "[25]", "result": 7.5, "unit": "µM"}, {"measurement": "TGI", "setting": "[25]", "result": 41.1, "unit": "µM"}, {"measurement": "GI50", "setting": "[26]", "result": 16.3, "unit": "µM"}, {"measurement": "TGI", "setting": "[26]", "result": 30.1, "unit": "µM"}, {"measurement": "GI50", "setting": "[27]", "result": 27.1, "unit": "µM"}, {"measurement": "TGI", "setting": "[27]", "result": 82, "unit": "µM"}]}]}
